Measurements published in patent US20250034136A1 (Nimbus Wadjet, Inc., priority 2023, published 2025).

Sequences of proteins named here, by UniProt entry; tags and fusion partners are left off. A change or cut given only in a name is not applied to a line headed by its entry.
UniProt Q14191: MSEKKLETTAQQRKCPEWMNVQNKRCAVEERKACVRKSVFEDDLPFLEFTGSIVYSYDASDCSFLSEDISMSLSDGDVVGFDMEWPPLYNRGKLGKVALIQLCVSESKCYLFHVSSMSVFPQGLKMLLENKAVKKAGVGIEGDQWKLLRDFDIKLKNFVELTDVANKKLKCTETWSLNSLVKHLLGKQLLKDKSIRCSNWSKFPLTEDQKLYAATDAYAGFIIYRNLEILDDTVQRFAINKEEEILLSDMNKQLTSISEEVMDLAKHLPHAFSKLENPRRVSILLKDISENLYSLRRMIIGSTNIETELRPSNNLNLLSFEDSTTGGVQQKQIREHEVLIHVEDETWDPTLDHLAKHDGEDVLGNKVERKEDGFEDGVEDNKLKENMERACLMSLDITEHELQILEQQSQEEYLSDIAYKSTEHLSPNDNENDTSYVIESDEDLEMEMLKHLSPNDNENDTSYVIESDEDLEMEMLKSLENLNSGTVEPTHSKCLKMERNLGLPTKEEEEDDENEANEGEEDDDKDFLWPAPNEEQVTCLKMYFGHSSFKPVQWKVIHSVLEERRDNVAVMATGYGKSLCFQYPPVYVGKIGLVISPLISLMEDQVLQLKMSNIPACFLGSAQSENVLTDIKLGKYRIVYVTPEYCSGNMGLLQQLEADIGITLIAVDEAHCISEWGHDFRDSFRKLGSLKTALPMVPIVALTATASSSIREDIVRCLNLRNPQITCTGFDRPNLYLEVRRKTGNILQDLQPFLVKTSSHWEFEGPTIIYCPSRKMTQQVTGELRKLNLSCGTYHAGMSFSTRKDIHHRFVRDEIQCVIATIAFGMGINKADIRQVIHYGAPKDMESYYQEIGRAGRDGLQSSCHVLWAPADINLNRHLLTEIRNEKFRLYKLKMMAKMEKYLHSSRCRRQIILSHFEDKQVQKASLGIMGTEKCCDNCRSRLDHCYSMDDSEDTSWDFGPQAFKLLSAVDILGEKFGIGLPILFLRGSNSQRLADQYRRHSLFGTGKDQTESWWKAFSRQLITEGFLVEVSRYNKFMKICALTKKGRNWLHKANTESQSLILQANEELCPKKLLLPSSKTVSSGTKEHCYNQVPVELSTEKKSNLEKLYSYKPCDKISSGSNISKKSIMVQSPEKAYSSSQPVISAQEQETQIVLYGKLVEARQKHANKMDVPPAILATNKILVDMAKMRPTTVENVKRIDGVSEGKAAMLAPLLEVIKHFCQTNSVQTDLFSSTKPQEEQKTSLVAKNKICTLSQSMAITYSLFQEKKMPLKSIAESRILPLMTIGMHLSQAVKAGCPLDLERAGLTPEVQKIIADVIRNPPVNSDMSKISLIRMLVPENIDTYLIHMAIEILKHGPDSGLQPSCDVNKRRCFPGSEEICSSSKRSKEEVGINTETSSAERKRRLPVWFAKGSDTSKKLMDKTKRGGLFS

Target: WRN (BV08), human Werner helicase (Uniprot Q14191, amino acids 517-1235 with L1074F point mutation) (Homo sapiens (Human), UniProt Q14191, L1074F)
Test: WRN (BV08) ADP-Glo assay
Type: biochemical
Settings: class symbols A-E, read-out: ADP-Glo_hWRN_IC50
Protocol: Bovine skin gelatin (BSG), dimethyl sulfoxide (DMSO), Pluronic F-127 and tris(2-carboxyethyl)phosphine hydrochloride solution (TCEP) were purchased from Sigma-Aldrich (St. Louis, MO) at the highest level of purity possible. […] DNA strands were annealed by heating to 95° C. for 5 minutes followed by slow cooling to room temperature. Compounds in 100% DMSO (0.1 μl) were spotted into a 384-well white polystyrene Optiplate-384 (Perkin Elmer; Waltham, MA) assay plate using a LabCyte Echo 550 (Agilent; Santa Clara, CA). DMSO (0.1 μl) was added to columns 12, rows A-H and column 24, rows I-P for the maximum signal control. […] Compounds/DMSO were preincubated for 15 minutes at 25° C. with 5 μl 2×WRN (BV08), prepared as described below, in assay buffer containing 20 mM Bicine (pH=7.5), 1 mM MgCl2, 10 mM KCl, 0.1% Pluronic F-127, 0.005% BSG, 1 mM TCEP. The reaction was initiated by the addition of 5 μl 2× substrate mixture in assay buffer and incubated for 60 minutes at 25° C. The final concentrations of the assay components were 0.15 nM WRN, 5 μM ATP, and 0.1 nM DNA duplex. The final DMSO concentration was 1% and the reference compound concentration (NSC-617145) used for the minimal signal control was 20 μM. The reaction was stopped by the addition of the ADP-Glo Kit components (Promega; Madison, WI) as directed and the relative luminescence units (RLU) were read on an Envision 2104 (Perkin Elmer; Waltham, MA). % inhibition calculation:
[formula] • Where RLU=relative luminescence units, sample=signal in sample well, and MIN and MAX are the respective minimum and maximum signal controls.
[formula] • Where top and bottom are normally allowed to float but may be fixed at 100 or 0 respectively in a 3-parameter fit. Y is the % inhibition and X is the compound concentration.
Molecular Biology and virus production. […] The baculovirus from the expression plasmid WRN—BV08 was generated from transfection and amplification following the manufacturer's instructions.
Sf9 cells grown in SF900II media were infected with 1:200 WRN—BV08 P2 virus and incubated for protein expression for 72 h at 27° C. […]

Row | SMILES | IC50 [nM]
1 | CCc1c(N2CCN(C(=O)c3ncnc(C)c3O)[C@H]3CC[C@H]32)c(=O)c2nc(N(C)C)cnc2n1CC(=O)Nc1ccc(C(F)(F)F)cc1Cl (racemic) [I-106, rac-N-(2-chloro-4-(trifluoromethyl)phenyl)-2-(2-(dimethylamino)-6-ethyl-7-(5-(5-hydroxy-6-methylpyrimidine-4-carbonyl)-2,5-diazabicyclo[4.2.0]octan-2-yl)-8-oxopyrido[2,3-b]pyrazin-5(8H)-yl)acetamide] | 5 to 50
2 | CCc1c(N2CCN(C(=O)c3ncnc(C)c3O)[C@H]3CC[C@@H]32)c(=O)c2nc(N(C)C)cnc2n1CC(=O)Nc1ccc(C(F)(F)F)cc1Cl (single isomer, unassigned) [I-40, N-(2-chloro-4-(trifluoromethyl)phenyl)-2-(2-(dimethylamino)-6-ethyl-7-(−5-(5-hydroxy-6-methylpyrimidine-4-carbonyl)-2,5-diazabicyclo[4.2.0]octan-2-yl)-8-oxopyrido[2,3-b]pyrazin-5(8H)-yl)acetamide] | 5 to 50
3 | CCc1c(N2CCN(C(=O)c3ncnc(C)c3O)C3CCC32)c(=O)c2nc(N(C)C)cnc2n1CC(=O)Nc1ccc(C(F)(F)F)cc1Cl (racemic) [I-34, rac-N-(2-chloro-4-(trifluoromethyl)phenyl)-2-(2-(dimethylamino)-6-ethyl-7-(5-(5-hydroxy-6-methylpyrimidine-4-carbonyl)-2,5-diazabicyclo[4.2.0]octan-2-yl)-8-oxopyrido[2,3-b]pyrazin-5(8H)-yl)acetamide] | 5 to 50
